The values that follow are results of earlier work, collected in publication PMC5218874.

By Kd is commonly meant the free concentration of one partner at which half of the binding sites on the other are occupied at equilibrium, for simple one-to-one binding.

The data set concerns the target Adenylate cyclase toxin (ACT) AC domain (Bordetella pertussis) (UniProt P0DKX7).

As to Calmodulin (from UniProt P0DP23), the Kd is 2 nM.
